Assay results from ChEMBL document CHEMBL1177709, “Molecular switch controlling the binding of anionic bile acid conjugates to human apical sodium-dependent bile acid transporter” (J Med Chem, 2010).
pKi: −log10 of the molar value.

Molecular target: T1, Ileal sodium/bile acid cotransporter (Homo sapiens, UniProt Q12908)
T1 sequence (Q12908 whole entry): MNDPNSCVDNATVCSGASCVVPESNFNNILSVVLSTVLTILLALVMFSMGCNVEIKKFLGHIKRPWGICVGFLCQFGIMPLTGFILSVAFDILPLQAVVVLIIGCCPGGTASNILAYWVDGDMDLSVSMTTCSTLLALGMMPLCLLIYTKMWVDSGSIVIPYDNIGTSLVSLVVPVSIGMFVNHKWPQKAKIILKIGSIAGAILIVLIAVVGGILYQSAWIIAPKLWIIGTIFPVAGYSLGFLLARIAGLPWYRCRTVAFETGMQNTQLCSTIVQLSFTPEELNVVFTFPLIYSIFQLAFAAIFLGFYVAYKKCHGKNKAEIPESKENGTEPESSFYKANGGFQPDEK
Experiment: Inhibition of human ASBT expressed in MDCK cells assessed as inhibition of [3H]taurocholic acid uptake after 10 mins by liquid scintillation counting
Format: cell-based
How it was run: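 Stably transfected hASBT-MDCK cells grown in DMEM with 10% FBS, penicillin/streptomycin and 1 mg/mL geneticin, seeded at 1.5 million/well, induced with 10mM sodium butyrate for 12-17 h before study on day 4. After HBSS washes, monolayers exposed 10 min at 37°C (shaking) to 2.5µM taurocholic acid with 0.5µCi/mL 3H-TCA plus conjugate (0-100 µM monoanions, 0-1000 µM dianions). Cells washed with chilled sodium-free buffer, lysed in NaOH, neutralized, counted.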

pKi: 5.70
Structure (SMILES): CC(CCC(=O)NC(CCC(=O)Nc1ccccc1)C(=O)O)C1CCC2C3C(O)CC4CC(O)CCC4(C)C3CCC12C (stereo unspecified)
